Tests used:
[1] = system: P-MEK/Total MEK; assay: Western blot MEK1 phosphorylation, HL-60; type: cell-based; conditions: HL-60 cells; IC50 P-MEK/Total MEK divided by IC50 Phospho-Ser3-Cofilin/Total Cofilin
Experimental: (§1) HL-60 cell line was originally purchased from the Leibniz-Institut Deutsche Sammlung von Mikroorganismen und Zellkulturen GmbH (DSMZ). HL-60 cells are cultured in RPMI 1640 10% (v/v) FBS supplemented with 100 U/mL^−1 penicillin, 0.1 mg·mL^−1 streptomycin (PAN Biotech P06-07100). Cells were maintained at 37° C. with 5% CO2.
(§2) In a 6 wells plate (Falcon 353046), 2·10^6 cells in 1.5 mL medium are treated for 2 h with compounds. Cells are then collected and cell lysis is performed at 4° C. using RIPA buffer supplemented with protease inhibitors cocktail (Sigma-Aldrich P8340) and phosphatase inhibitors cocktail (Sigma-Aldrich P5726). Following centrifugation 30 min 15000 g 4° C., supernatants are mixed with Laemmli buffer and denaturation is performed by heating 5 min 95° C. 10 μL of samples are subjected to electrophoresis on 15% SDS-PAGE. […] For each concentration of compound, ratio between phosphorylated cofilin and total cofilin is determined. This ratio is then expressed as percentage of control ratio (i.e., ratio from DMSO treated cells). IC50 P-MEK/Total MEK is then determined.
(§3) Selectivity ratios are calculated by dividing the IC50 P-MEK/Total MEK value (μM) by the IC50 Phospho-Ser3-Cofilin/Total Cofilin value (μM).

Chains of the proteins cited; added tags and fusions are not shown.
UniProt P15056, whole entry: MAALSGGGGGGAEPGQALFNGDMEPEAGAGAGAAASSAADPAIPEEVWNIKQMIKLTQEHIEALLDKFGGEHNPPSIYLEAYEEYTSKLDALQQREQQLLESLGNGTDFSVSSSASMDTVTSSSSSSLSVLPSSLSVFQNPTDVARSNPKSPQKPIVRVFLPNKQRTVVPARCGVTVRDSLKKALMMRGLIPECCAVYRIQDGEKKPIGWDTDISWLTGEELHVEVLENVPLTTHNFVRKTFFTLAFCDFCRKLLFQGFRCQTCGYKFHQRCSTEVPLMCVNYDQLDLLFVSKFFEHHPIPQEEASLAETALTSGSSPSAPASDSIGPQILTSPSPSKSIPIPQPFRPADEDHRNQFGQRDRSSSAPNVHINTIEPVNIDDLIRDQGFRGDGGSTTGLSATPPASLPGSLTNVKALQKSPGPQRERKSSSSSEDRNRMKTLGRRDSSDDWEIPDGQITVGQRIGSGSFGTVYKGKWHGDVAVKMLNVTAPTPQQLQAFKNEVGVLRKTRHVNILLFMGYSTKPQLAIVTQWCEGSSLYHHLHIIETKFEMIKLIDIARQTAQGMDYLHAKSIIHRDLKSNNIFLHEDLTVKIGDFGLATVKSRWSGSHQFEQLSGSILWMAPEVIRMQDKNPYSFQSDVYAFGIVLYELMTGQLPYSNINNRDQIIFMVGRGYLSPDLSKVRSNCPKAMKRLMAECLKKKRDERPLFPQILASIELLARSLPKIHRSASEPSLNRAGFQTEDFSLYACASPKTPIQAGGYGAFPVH

[2] = molecular target: B-Raf(h) (Homo sapiens, UniProt P15056); assay: B-Raf kinase assay (Eurofins Panlabs, radiometric); type: biochemical; parameters: purchased Eurofins Panlabs Inc. (contract assay service); conditions: IC50 B-Raf (nM) divided by IC50 LIMK1 (nM); Table 8
Experimental: IC50 B-Raf is then determined.
Selectivity ratios are calculated by dividing the IC50 B-Raf (nM) by the IC50 LIMK1 (nM).

[3] = system: P-MEK/Total MEK; assay: Western blot MEK1 phosphorylation, Kasumi-1; type: cell-based; conditions: Kasumi-1 cells; IC50 P-MEK/Total MEK divided by IC50 Phospho-Ser3-Cofilin/Total Cofilin
Experimental: Kasumi-1 cell line was originally purchased from the American Type Culture Collection (ATCC). Kasumi-1 cells are cultured in RPMI 1640 20% (v/v) FBS supplemented with 100 U/mL^−1 penicillin, 0.1 mg·mL^−1 streptomycin (PAN Biotech P06-07100). Cells were maintained at 37° C. with 5% CO2.
as §2, §3

[4] = system: P-MEK/Total MEK; assay: Western blot MEK1 phosphorylation, MOLM-13; type: cell-based; conditions: MOLM-13 cells; IC50 P-MEK/Total MEK divided by IC50 Phospho-Ser3-Cofilin/Total Cofilin
Experimental: as §1, with “MOLM-13” for “HL-60”, “20%” for “10%”
as §2, §3

[5] = system: P-MEK/Total MEK; assay: Western blot MEK1 phosphorylation, MOLM-14; type: cell-based; conditions: MOLM-14 cells; IC50 P-MEK/Total MEK divided by IC50 Phospho-Ser3-Cofilin/Total Cofilin
Experimental: MOLM-14 cell line was originally purchased from the American Type Culture Collection (ATCC). MOLM-14 cells are cultured in MEM alpha 10% (v/v) FBS supplemented with 100 U/mL^−1 penicillin, 0.1 mg·mL^−1 streptomycin (PAN Biotech P06-07100). Cells were maintained at 37° C. with 5% CO2.
as §2, §3

[6] = system: P-MEK/Total MEK; assay: Western blot MEK1 phosphorylation, THP-1; type: cell-based; conditions: THP-1 cells; IC50 P-MEK/Total MEK divided by IC50 Phospho-Ser3-Cofilin/Total Cofilin
Experimental: as §1, with “THP-1” for “HL-60”, “20%” for “10%”
as §2, §3

[7] = system: P-MEK/Total MEK; assay: Western blot MEK1 phosphorylation, MV4-11; type: cell-based; conditions: MV4-11 cells; IC50 P-MEK/Total MEK divided by IC50 Phospho-Ser3-Cofilin/Total Cofilin
Experimental: as §1, with “MV4-11” for “HL-60”, “purchased from the American Type Culture Collection (ATCC) or” for “purchased”, “20%” for “10%”, “P06-07100) and 2 mM Glutamine (Sigma-Aldrich 59202C).” for “P06-07100).”
as §2, §3

[8] = system: P-MEK/Total MEK; assay: Western blot MEK1 phosphorylation, K-562; type: cell-based; conditions: K562 cells; IC50 P-MEK/Total MEK divided by IC50 Phospho-Ser3-Cofilin/Total Cofilin
Experimental: as §1, with “K-562” for “HL-60”
as §2, §3

SMILES	Selectivity ratio [1]	Selectivity ratio [2]	Selectivity ratio [3]	Selectivity ratio [4]	Selectivity ratio [5]	Selectivity ratio [6]	Selectivity ratio [7]	Selectivity ratio [8]
CNC(=O)Cc1nc(-c2cccc(NS(=O)(=O)c3c(F)cccc3F)c2F)c(-c2ccnc(Nc3ccccc3)n2)s1 [9 (Na)]	15	15	25	42	90			
CNC(=O)Cc1nc(-c2cccc(NS(=O)(=O)c3c(F)cccc3F)c2F)c(-c2ccnc(Nc3ccccc3)n2)s1 [Compound 9, 2-(4-(3-(2,6-difluorophenylsulfonamido)-2-fluorophenyl)-5-(2-(phenylamino)pyrimidin-4-yl)thiazol-2-yl)-N-methylacetamide]		20		125	125	8	3	7

From US20190263796A1, “LIM KINASE INHIBITORS, PHARMACEUTICAL COMPOSITION AND METHOD OF USE IN LIMK-MEDIATED DISEASES” (CELLIPSE, priority 2016, published 2019)
